From publication PMC3003779 (Chemistry & biology, 2010)
Like-named read-outs stand apart in the source and are kept apart here.

Sequences of proteins named here, by UniProt entry; tags and fusion partners are left off.
UniProt O08914, whole entry: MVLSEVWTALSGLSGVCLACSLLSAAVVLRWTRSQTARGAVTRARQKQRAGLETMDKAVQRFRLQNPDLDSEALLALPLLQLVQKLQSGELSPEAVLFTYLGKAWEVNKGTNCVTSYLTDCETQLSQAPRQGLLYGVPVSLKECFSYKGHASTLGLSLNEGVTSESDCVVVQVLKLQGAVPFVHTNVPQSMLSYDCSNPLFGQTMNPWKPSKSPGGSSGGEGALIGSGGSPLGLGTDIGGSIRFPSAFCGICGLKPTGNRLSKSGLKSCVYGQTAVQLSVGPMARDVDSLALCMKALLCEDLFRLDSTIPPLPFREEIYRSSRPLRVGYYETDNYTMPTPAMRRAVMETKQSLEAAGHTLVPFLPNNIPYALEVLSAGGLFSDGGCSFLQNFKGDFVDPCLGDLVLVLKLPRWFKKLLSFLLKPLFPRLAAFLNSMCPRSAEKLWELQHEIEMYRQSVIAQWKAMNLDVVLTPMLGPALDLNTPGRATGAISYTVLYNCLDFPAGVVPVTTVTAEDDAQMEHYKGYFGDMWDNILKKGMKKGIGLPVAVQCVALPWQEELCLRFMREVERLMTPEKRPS

Target: FAAH (Mus musculus, UniProt O08914)
Assay: in vivo
Settings: for inhibition at 1 mg/kg: ip

In the case of O=S(=O)(F)CCCCCc1ccc(O)cc1 [AM3506, 5-(4-hydroxyphenyl)pentanesulfonyl fluoride], the “FAAH activity in brain and liver after in vivo administration” value (1 mg/kg i.p., 1 h) is reported as “blocked FAAH activity in brain but not in liver”, the inhibition at 1 mg/kg (read-out: FAAH inhibition, duration, 1 mg/kg i.p., 12 hours) is reported as roughly 90% and the inhibition at 1 mg/kg (read-out: FAAH inhibition, duration, 1 mg/kg i.p., 24 hours) is reported as roughly 80%. It also gave an inhibition at 1 mg/kg (read-out: FAAH inhibition, duration, 1 mg/kg i.p., up to 2 hours) greater than 99%.
